High-throughput results from PubChem BioAssay.
Sampled rows, rich in hits. Any-hit rate of the full collection: about 1.8%.
DENV2 CPE – inhibitors of DENV2 cytopathic effect, primary screen, cell-based, plate reader, single concentration; 350,000 compounds, 1.7% hits; DENV2-infected cells, cytopathic effect rescue; CPE inhibition, % at 9.99 µM; in the data active = CPE inhibition above about 20%, passing the limit was not always enough; inconclusive = no clear call, values can overlap the other calls; tested in BHK-21 cells;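 note: 0% = median of neutral control wells and 100% = median of positive control wells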
Cneo AK release – Cryptococcus neoformans cell lysis inducers, primary screen, AK release luminescence, single concentration; 360,000 compounds, 0.2% hits; C. neoformans lysis, adenylate kinase release luminescence, 4 h; normalised: neutral wells 0, clomiphene wells 100; AID 651654, 2012; lysis activity, % at 15 µM;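 active = mean lysis activity across replicates of at least 80%, whatever share of replicates individually reach that level; inactive = mean lysis activity below 80%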
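Signal: Adenylate kinase release luminescence | Assay system: Log-phase Cryptococcus neoformans yeast cells | Input: Cells at 5 × 10^6 per mL | Buffer or medium: Fresh YPD growth medium | Compound: Single dose | Schedule: Static 4 h at 37 °C with compound, 1 h detection | Controls: Clomiphene | Read-out: Luminescence rise reflecting yeast cell lysis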
Yeast UUG start – modulators of start codon recognition fidelity in yeast. S. cerevisiae UUG-firefly luciferase reporter, luminescence/redox ratio. activity score, % at 18.7 µM. 350,000 tested, 0.13% active;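 active = replicate mean at a twofold rise or more, about +100% in these data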;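 note: firefly luciferase made from a UUG start codon reports start codon fidelity; reporter light over untreated wells divided by growth signal over untreated wells; some hits fall short of that in this replicate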
E-selectin induc – E-selectin induction in HUVECs, primary screen, imaging, HUVEC, immunofluorescence imaging, single point | P16581 | normalized: neutral wells 0, TNF-alpha wells 100 | activation, % at 7.58 µM | 260,000 compounds, 0.37% hits;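 active = mean E-selectin-positive cell signal at least 10% of the positive control, reached in at least 60% of replicates, without over 20% cell loss; inconclusive = no rule given, readout overlaps actives, possibly toxicity-flagged; inactive = the rest, including those meeting only one limit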
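Test system: HUVEC; input: 3,000 HUVEC/well; measured by: immunofluorescence imaging; read-out: % PE-positive cells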
Active calls of the source: *; ? = inconclusive; nt = no result given; ! = a repeat was not active.

item	mol	E-selectin induc	Yeast UUG start
1	C[C@H]1CCCCO[C@H](CN(C)C(=O)Nc2ccc3c(c2)OCO3)[C@@H](C)CN([C@@H](C)CO)C(=O)c2cc(NS(=O)(=O)c3ccc(Cl)cc3)ccc2O1	0	-8
2	C[C@@H]1CCCCO[C@@H](CN(C)C(=O)c2ccccc2)[C@H](C)CN([C@@H](C)CO)C(=O)c2cc(NS(=O)(=O)c3ccc(Cl)cc3)ccc2O1	0	5
3	C[C@H](CO)N1C[C@H](C)[C@H](CN(C)C(=O)c2ccccc2)OCCCC[C@H](C)Oc2ccc(NS(=O)(=O)c3ccc(F)cc3)cc2C1=O	0	45
4	C[C@@H]1CCCCO[C@@H](CN(C)C(=O)c2ccccc2)[C@@H](C)CN([C@@H](C)CO)C(=O)c2cc(NS(=O)(=O)c3ccc(F)cc3)ccc2O1	0	34
5	C[C@@H]1CCCCO[C@@H](CN(C)C(=O)c2ccccc2)[C@@H](C)CN([C@@H](C)CO)C(=O)c2cc(NS(=O)(=O)c3ccc(Cl)cc3)ccc2O1	0	-14
6	C[C@H]1CN([C@@H](C)CO)C(=O)c2cc(NS(=O)(=O)c3ccccc3)ccc2O[C@H]1CN(C)C(=O)Nc1ccccc1	0	-7
7	CCCCC(=O)Nc1cc([N+](=O)[O-])ccc1Cl	6	nt
8	CCCCC(=O)Nc1cc([N+](=O)[O-])ccc1F	nt	nt
9	Cc1ccc(S(=O)(=O)N(C)C[C@@H]2OCCCC[C@@H](C)Oc3ccc(NC(=O)NC(C)C)cc3C(=O)N([C@H](C)CO)C[C@@H]2C)cc1	0	5
10	COc1ccc(S(=O)(=O)Nc2ccc3c(c2)C(=O)N([C@@H](C)CO)C[C@H](C)[C@@H](CN(C)C(=O)Nc2ccc(C(F)(F)F)cc2)OCCCC[C@@H](C)O3)cc1	0	-6
11	COc1ccc(S(=O)(=O)Nc2ccc3c(c2)C(=O)N([C@@H](C)CO)C[C@H](C)[C@@H](CN(C)C(=O)Nc2ccc(C(F)(F)F)cc2)OCCCC[C@H](C)O3)cc1	0	-20
12	COc1ccc(NC(=O)Nc2ccc3c(c2)C(=O)N([C@H](C)CO)C[C@H](C)[C@H](CN(C)C(=O)Nc2ccc(C(F)(F)F)cc2)OCCCC[C@H](C)O3)cc1	0	-15

item	DENV2 CPE	Cneo AK release
1	52*	5
2	-10	-4
3	-3	54
4	121*	57
5	21*	2
6	-5	-6
7	23*	nt
8	0	nt
9	nt	-2
10	6	-2
11	106*	-1
12	48*	-2

(more compounds)
item	mol	E-selectin induc	Yeast UUG start
13	COc1ccc(S(=O)(=O)Nc2ccc3c(c2)C(=O)N([C@@H](C)CO)C[C@H](C)[C@H](CN(C)C(=O)Nc2ccc(C(F)(F)F)cc2)OCCCC[C@H](C)O3)cc1	0	-14
14	COc1ccc2c3c(n(C)c2c1)[C@H](CO)N(Cc1ccccc1)CC31CCN(C(=O)c2ccccc2F)CC1	0	nt
15	CC(OC(=O)c1ccccc1O)C(=O)Nc1ccc(Cl)cn1 (stereo not given)	0	nt
16	CC(OC(=O)C1=COCCO1)C(=O)Nc1ccc(Cl)cn1 (stereo not given)	1	-5
17	C[C@@H]1CN([C@@H](C)CO)C(=O)c2cc(NC(=O)NC3CCCCC3)ccc2O[C@H]1CN(C)Cc1ccncc1	0	-12
18	COc1ccc(S(=O)(=O)N[C@@H]2C=C[C@@H](CC(=O)NCCc3ccccc3)O[C@@H]2CO)cc1	0	34
19	CCC(=O)N[C@@H]1C=C[C@H](CC(=O)OC)O[C@H]1CO	0	3
20	COC(=O)C[C@@H]1C=C[C@@H](NS(=O)(=O)c2ccc(OC)cc2)[C@@H](CO)O1	0	-9
21	COc1ccccc1NC(=O)N[C@@H]1C=C[C@H](CC(=O)N[C@@H](C)c2ccccc2)O[C@H]1CO	0	0
22	CCC(=O)N[C@H]1C=C[C@@H](CC(=O)OC)O[C@@H]1CO	0	10
23	O=C(C[C@H]1C=C[C@@H](NC(=O)C2CCC2)[C@@H](CO)O1)NCC1CC1	0	-9
24	CCc1cc2c(=O)[nH]c(COC)nc2s1	nt	nt

item	DENV2 CPE	Cneo AK release
13	109*	-2
14	?	nt
15	-7	nt
16	70*	-2
17	4	-10
18	39*	-3
19	-1	18
20	23*!	30
21	66*	-6
22	-4	88*
23	58*	3
24	46*	nt

Continuation.
item	mol	E-selectin induc	Yeast UUG start
25	Cn1c(=O)c2cc(S(=O)(=O)NC(C(=O)Nc3cccc(F)c3)c3ccccc3)ccc2n(C)c1=O (stereo not given)	0	6
26	Cn1c(=O)c2cc(S(=O)(=O)NC(C(=O)Nc3cccnc3)c3ccccc3)ccc2n(C)c1=O (stereo not given)	0	-15
27	Cc1cccc(-c2ccc([C@@H]3[C@@H](CO)N4CCCCN(S(=O)(=O)c5ccccc5C)C[C@@H]34)cc2)c1	-1	2
28	Cc1cccc(S(=O)(=O)N2CCCCN3[C@H](CO)[C@H](c4ccc(-c5ccncc5)cc4)[C@@H]3C2)c1	-1	1
29	Cc1cccc(-c2ccc([C@@H]3[C@@H](CO)N4CCCCN(S(=O)(=O)c5cccc(C)c5)C[C@@H]34)cc2)c1	-1	-8
30	Cc1cccc(S(=O)(=O)N2CCCCN3[C@@H](CO)[C@@H](c4ccc(-c5ccncc5)cc4)[C@@H]3C2)c1	1	-5
31	CCC(=O)N1C[C@@H]2[C@H](c3ccccc31)[C@@H](CO)N2C(=O)Nc1ccccc1	-1	27
32	COc1ccc(NC(=O)Nc2ccc3c(c2)[C@H]2C[C@H](CC(=O)O)O[C@@H](CO)[C@H]2O3)cc1	0	nt
33	O=C(Cn1ccc(NC(=O)OCc2ccccc2)nc1=O)NCCCN1CCCC1=O	0	-6
34	O=C(Nc1ccn(CC(=O)N2CCN(c3ccccn3)CC2)c(=O)n1)OCc1ccccc1	0	-1
35	O=C(Nc1ccn(CCCN2CCN(c3ncccn3)CC2)c(=O)n1)OCc1ccccc1	2	-12
36	COc1ccc2c3c([nH]c2c1)[C@@H](CO)N(Cc1ccccc1)CC31CN(C(=O)NC(C)C)C1	0	nt

item	DENV2 CPE	Cneo AK release
25	78*	0
26	-8	0
27	1	108*
28	33*	5
29	21*	-1
30	5	6
31	nt	55
32	3	-2
33	114*	2
34	119*	1
35	6	-2
36	8	nt

(next part)
item	mol	E-selectin induc	Yeast UUG start
37	CCCc1cn([C@H]2C[C@@H]3O[C@@H](CO)CC[C@@H]3O[C@@H]2CCc2ccc(-c3cccc(OC)c3)cc2)nn1	nt	nt
38	C[C@@H]1CN([C@H](C)CO)C(=O)c2cc(N(C)C)ccc2O[C@H]1CN(C)Cc1ccc(C(=O)O)cc1	267*	-4
39	C[C@H](CO)N1C[C@H](C)[C@H](CN(C)Cc2ccc(C(=O)O)cc2)Oc2ccc(N(C)C)cc2C1=O	-6	nt
40	C[C@H](CO)N1C[C@H](C)[C@H](CN(C)Cc2ccc(C(F)(F)F)cc2)Oc2ccc(N(C)C)cc2C1=O	0	0
41	COc1ccc(CN(C)C[C@@H]2OCc3cn(nn3)CCCC(=O)N([C@H](C)CO)C[C@@H]2C)cc1	0	-11

item	DENV2 CPE	Cneo AK release
37	7	nt
38	2	1
39	nt	nt
40	40*	10
41	-5	1

Full records from above:
`C[C@H](CO)N1C[C@H](C)[C@H](CN(C)Cc2ccc(C(F)(F)F)cc2)Oc2ccc(N(C)C)cc2C1=O` is entered as E-selectin induc = 0; Yeast UUG start = 0; DENV2 CPE = 40*; Cneo AK release = 10
`C[C@H](CO)N1C[C@H](C)[C@H](CN(C)Cc2ccc(C(=O)O)cc2)Oc2ccc(N(C)C)cc2C1=O` is entered as E-selectin induc = -6; Yeast UUG start = nt; DENV2 CPE = nt; Cneo AK release = nt
